2 compounds from article PMC12595434, “Development of retinoid nuclear receptor pathway antagonists through targeting aldehyde dehydrogenase 1A3” (iScience, 2025) can be followed below.

By UniProt entry, the sequences of proteins in these tests, tags left out.
UniProt P14416, whole entry: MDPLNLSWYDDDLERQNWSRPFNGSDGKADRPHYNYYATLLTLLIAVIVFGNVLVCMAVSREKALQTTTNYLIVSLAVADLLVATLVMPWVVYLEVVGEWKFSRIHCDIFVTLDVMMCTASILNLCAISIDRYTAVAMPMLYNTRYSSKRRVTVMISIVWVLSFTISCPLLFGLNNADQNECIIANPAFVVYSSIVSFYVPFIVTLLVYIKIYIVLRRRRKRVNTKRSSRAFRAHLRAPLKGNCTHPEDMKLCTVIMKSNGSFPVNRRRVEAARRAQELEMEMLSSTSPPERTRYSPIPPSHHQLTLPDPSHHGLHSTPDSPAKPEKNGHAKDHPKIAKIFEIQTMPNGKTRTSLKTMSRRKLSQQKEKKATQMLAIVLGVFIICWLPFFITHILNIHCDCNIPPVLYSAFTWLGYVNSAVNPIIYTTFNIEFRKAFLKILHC
UniProt P21397, whole entry: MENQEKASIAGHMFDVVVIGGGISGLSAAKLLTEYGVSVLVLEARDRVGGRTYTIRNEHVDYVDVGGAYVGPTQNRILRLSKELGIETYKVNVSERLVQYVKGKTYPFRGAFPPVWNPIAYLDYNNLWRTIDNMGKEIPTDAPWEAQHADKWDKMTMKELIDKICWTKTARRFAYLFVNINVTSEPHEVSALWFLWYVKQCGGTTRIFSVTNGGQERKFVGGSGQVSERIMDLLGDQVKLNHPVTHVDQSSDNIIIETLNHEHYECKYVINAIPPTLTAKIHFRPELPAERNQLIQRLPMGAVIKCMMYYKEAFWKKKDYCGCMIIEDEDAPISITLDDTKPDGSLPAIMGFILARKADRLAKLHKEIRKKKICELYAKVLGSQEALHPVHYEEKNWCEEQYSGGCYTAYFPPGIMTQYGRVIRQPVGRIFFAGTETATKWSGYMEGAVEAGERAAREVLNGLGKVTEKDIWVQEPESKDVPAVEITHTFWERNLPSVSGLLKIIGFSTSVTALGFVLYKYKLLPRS

The target in assay [1] is D2 (Homo sapiens, UniProt P14416). The assay can be described thus: Off-target profiling panel. The assay is classed as binding. The settings on record: 7-OH-DPAT 1,000 nM. The method, then:
To assess the in vivo pharmacokinetics of MBE1, we assessed the measured plasma concentrations following a 1 mg/kg intravenous or 10 mg/kg oral dose of MBE1 in fasted male CD-1 mice.

Assay [2] addresses MAO-A (Homo sapiens, UniProt P21397). The assay can be described thus: Off-target profiling panel. Particulars: clorgyline 1,000 nM. The assay is classed as biochemical.

As for `CCCN(CCC)C1CCc2ccc(O)cc2C1` (centres unmarked) [7-OH-DPAT, reference compound], the “Inhibition by reference at listed dose (%)” value in assay [1] is given as 100.10%. In the case of `C#CCN(C)CCCOc1ccc(Cl)cc1Cl` [clorgyline, reference compound], the “Inhibition by reference at listed dose (%)” value in assay [2] amounted to 99.9%.
